Series [1] addresses Albumin (Rattus norvegicus, UniProt P02770). The series is described as follows: Binding affinity to Wistar rat serum albumin. In kind it is ADME.
Series [2] is described as follows: Ratio of fraction unbound in Wistar rat brain homogenate at 5 uM after 5 hrs by equilibrium dialysis method to fraction unbound in solid supported porcine brain membrane vesicles at 5 uM by TRANSIL assay. Background: In equilibrium dialysis free small molecules cross a membrane that holds back macromolecules.
Series [3] can be described thus: Ratio of fraction unbound in solid supported porcine brain membrane vesicles at 5 uM by TRANSIL assay to fraction unbound in Wistar rat brain homogenate at 5 uM after 5 hrs by equilibrium dialysis method. Format: ADME, tissue-based.
The nature of series [4]: Ratio, ratio of fraction unbound in solid supported porcine brain membrane vesicles at 5 uM dosed as discrete compounds after 5 hrs by TRANSIL assay to fraction unbound in solid supported porcine brain membrane vesicles at 5 uM using four compound cocktail after 5 hrs by TRANSIL assay. In kind it is ADME, Sus scrofa. The conditions noted are these: pig, in vitro.
A short description of series [5]: Binding affinity to Wistar rat brain lipid by TRANSIL assay. Format: ADME.

pKd: −log10 of the molar value.

For orientation: pKd means the Kd on a negative log10 scale, so that one unit is a factor of ten. High values mean a low Kd, low ones a high Kd.

The compound `COc1ccc(C(CN(C)C)C2(O)CCCCC2)cc1` (configuration not stated) [VENLAFAXINE] had a negative-log Kd (pKd) in series [1] of 3.29. For the same compound, the Ratio in series [2] is listed as 1.7.
With `CN(C)CCCN1c2ccccc2Sc2ccc(Cl)cc21` [CHLORPROMAZINE], in series [3], the Ratio was found to be 1.1. In addition, the pKd in series [1] is 4.93.
In the case of `NC(=O)N1c2ccccc2C=Cc2ccccc21` [CARBAMAZEPINE], the Ratio is 1.1 in series [3] and 0.5 in series [4]. For the same compound, in series [1], the pKd is 3.99.
In turn, `CCN(CC)CCNC(=O)c1cc(Cl)c(N)cc1OC` [METOCLOPRAMIDE] gave a pKd in series [1] of 2.86. For the same compound, the Ratio in series [2] was 1.2.
The compound `CN1C(=O)CN=C(c2ccccc2)c2cc(Cl)ccc21` [DIAZEPAM] had a pKd in series [5] of 5.49.
For the compound `CN1CCN(CCCN2c3ccccc3Sc3ccc(C(F)(F)F)cc32)CC1` [TRIFLUOPERAZINE], the Ratio in series [3] is on record as 2.6. In series [1], this compound had a pKd of 4.85.

For the origin of these results see ChEMBL document CHEMBL3526149, “Brain tissue binding of drugs: evaluation and validation of solid supported porcine brain membrane vesicles (TRANSIL) as a novel high-throughput method” (Drug Metab Dispos, 2011).
